Rows were chosen to be rich in hits. Some 16% of all compounds tested hit in one or more screens of this group.
DT40 TDP1 no CPT = qHTS for Inhibitors of human tyrosyl-DNA phosphodiesterase 1 (TDP1): qHTS in cells in absence of CPT; DT40 Tdp1-/- hTDP1 cells, no CPT, ATP luminescence, 48 h; AID 686978, 2013; Potency, µM (doses to about 46.2 µM), inactives show top-dose activity change, negative = growth inhibition, most hits filed as inhibitors; 15% of 420,000 active; note: potency is the fitted concentration of half-maximal effect; % is set by controls: 0 for no effect and ±100 for the full control effect; nearly all actives have a fitted effect of over 55% in size
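Seeded 400 DT40-hTDP1 cells/well (vehicle DMSO, no 20 nM CPT); pinned compounds; ≥48 hr at 37 °C; CellTiter-Glo luminescence as viability measure.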
DT40 TDP1 CPT = growth inhibition of DT40 Tdp1-/-;hTDP1 cells with camptothecin (screen for TDP1 inhibitors); 12% of 420,000 active; AID 686979; Potency, µM (titrated, usually from 46.2 µM), inactives show at the highest dose activity change, negative = growth inhibition, most hits filed as inhibitors; chicken DT40 Tdp1-/-;hTDP1 cells + 20 nM CPT, ATP luminescence, 48 h; note: potency is the fitted concentration of half-maximal effect; % is set by controls: 0 for no effect and ±100 for the full control effect; nearly all actives have a fitted effect of over 55% in size
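Cell growth measured by CellTiter-Glo luminescence after a minimum 48 h, 37 C compound exposure with 20 nM CPT in Tdp1-knockout DT40 cells stably expressing hTDP1, seeded 400/well; qHTS titration format.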
uPA surface inh = inhibitors of cell surface uPA generation; cell surface uPA generation assay, qHTS; Potency, µM (top dose mostly 38.3 µM), inactives show top-dose activity change, negative = inhibition, hits mostly inhibitors; 0.31% of 330,000 active; active = well fitted inhibition curve with a large enough effect; inconclusive = small, poorly fitted or top-dose-only effect; inactive = no such curve, though single readings can be large or run the other way; tested in mouse RAW 264.7 cells; note: potency is the fitted concentration of half-maximal effect; % is set by controls: 0 for no effect and ±100 for the full control effect; nearly all actives have a fitted effect of over 55% in size
miR-21 reporter = raises the signal of a miR-21 reporter; Potency, µM (doses to about 38.3 µM), inactives show top-dose reporter change, positive = more light; HeLa miR-21 FLuc reporter, luciferase, 48 h; AID 2288; 340,000 tested, under 10 active; active = well fitted rising curve with a large enough effect; inconclusive = small, poorly fitted or top-dose-only effect; inactive = no such curve, though single readings can be large or run the other way;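 further: % of control where 0% means no effect; miR-21 action dims this reporter so a rising signal means less miR-21 action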
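HeLa cells stably expressing CMV-driven firefly luciferase with a downstream miR-21 binding sequence, endogenously expressing miR-21, were treated with titrations (up to about 40uM final) for 48 hours at 37 degree Celsius. Luciferase luminescence was read after lysis.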
TDP1 block = blocks human tyrosyl-DNA phosphodiesterase 1 | recombinant TDP1, AlphaScreen DNA substrate cleavage | Potency, µM (highest dose often 130 µM), inactives show at the highest dose activity change, negative = inhibition, actives largely listed as inhibitors | 0.28% of 350,000 active | AID 485290; note: potency is the fitted concentration of half-maximal effect; % is set by controls: 0 for no effect and ±100 for the full control effect; nearly all actives have a fitted effect of over 40% in size
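Compounds were preincubated with Tdp1 (1 nM final) for 15 min at room temperature before substrate (15 nM final) started a 5 min reaction; beads (10 ug/ml final) were then added for 10 min before AlphaScreen detection.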
* = called active by the depositor. Unless noted, calls come from the whole dose curve; as a rule, active = well fitted curve in the direction sought with a large enough effect; inconclusive = small, poorly fitted or top-dose-only effect, or another doubt; inactive = no such curve, though single readings can be large; an effect the other way counts as inactive or inconclusive.

Results for COC(=O)c1[nH]c2cc(OC)ccc2c1NC(=O)CN1CCN(c2cccc(C)c2)C(C)C1 (stereo not drawn) ?
DT40 TDP1 no CPT: inconclusive; DT40 TDP1 CPT: inconclusive; uPA surface inh: -12%; miR-21 reporter: 21%; TDP1 block: 9%

What do the screens show for `COc1ccc(C)cc1N(C(=O)c1ccc(F)cc1)c1nc2ccccc2s1`?
DT40 TDP1 no CPT: 16µM*; DT40 TDP1 CPT: inconclusive; uPA surface inh: -5%; miR-21 reporter: -3%; TDP1 block: 3%

What do the screens show for `O=C(Nc1ccc2c(c1)OCCO2)C1CCCN(S(=O)(=O)c2cccc3nsnc23)C1` (stereo not drawn)?
DT40 TDP1 no CPT: inconclusive; DT40 TDP1 CPT: inconclusive; uPA surface inh: 9%; miR-21 reporter: 4%; TDP1 block: 7%

Results for O=C(Nc1ccc(F)c(Cl)c1)C1CCCN(S(=O)(=O)c2cccc3nsnc23)C1 (stereo not drawn) ?
DT40 TDP1 no CPT: 23µM*; DT40 TDP1 CPT: 16µM*; miR-21 reporter: 24%; TDP1 block: 9%

Results for CC(C)c1ccc(NC(=O)C2CCCN(S(=O)(=O)c3cccc4nsnc34)C2)cc1 (stereo not drawn) ?
DT40 TDP1 no CPT: 10µM*; DT40 TDP1 CPT: 4.6µM*; miR-21 reporter: 5%; TDP1 block: -5%

How did CC(C)c1ccc(NC(=O)C2CCN(S(=O)(=O)c3cccc4nsnc34)CC2)cc1 do in these assays?
DT40 TDP1 no CPT: inconclusive; DT40 TDP1 CPT: inconclusive; miR-21 reporter: -2%; TDP1 block: 0%

How did Cc1cnc(C(=O)OCC(=O)C23CC4CC(CC(C4)C2)C3)cn1 do in these assays?
DT40 TDP1 no CPT: 18%; DT40 TDP1 CPT: -13%; uPA surface inh: 9%; miR-21 reporter: -1%; TDP1 block: 1%

How did Cc1c(C(N)=O)sc2nc(-c3ccccc3)cn12 do in these assays?
DT40 TDP1 no CPT: -7%; DT40 TDP1 CPT: -3%; uPA surface inh: -3%; miR-21 reporter: -71%; TDP1 block: 0%

How did CCc1ccc(NC(=O)c2sc3nc(-c4ccccc4)cn3c2C)cc1 do in these assays?
DT40 TDP1 no CPT: inconclusive; DT40 TDP1 CPT: inconclusive; miR-21 reporter: -5%; TDP1 block: 3%

Results for Cc1cc(C)cc(NC(=O)c2sc3nc(-c4ccccc4)cn3c2C)c1 ?
DT40 TDP1 no CPT: 12µM*; DT40 TDP1 CPT: 15µM*; miR-21 reporter: 20%; TDP1 block: 4%

What do the screens show for `Cc1cccc(NC(=O)c2sc3nc(-c4ccccc4)cn3c2C)c1C`?
DT40 TDP1 no CPT: inconclusive; DT40 TDP1 CPT: 0.52µM*; miR-21 reporter: -41%; TDP1 block: -2%

How did COC(=O)c1ccc(NC(=O)c2sc3nc(-c4ccccc4)cn3c2C)cc1 do in these assays?
DT40 TDP1 no CPT: 2.6µM*; DT40 TDP1 CPT: 6.5µM*; miR-21 reporter: -6%; TDP1 block: 6%

Overlap with the part before: two compounds, then new ones.
What do the screens show for `Cc1cccc(NC(=O)c2sc3nc(-c4ccccc4)cn3c2C)c1C`?
DT40 TDP1 no CPT: inconclusive; DT40 TDP1 CPT: 0.52µM*; miR-21 reporter: -41%; TDP1 block: -2%

How did COC(=O)c1ccc(NC(=O)c2sc3nc(-c4ccccc4)cn3c2C)cc1 do in these assays?
DT40 TDP1 no CPT: 2.6µM*; DT40 TDP1 CPT: 6.5µM*; miR-21 reporter: -6%; TDP1 block: 6%

Results for Cc1onc(-c2ccccc2)c1C(=O)N/N=C/c1c[nH]c2ccccc12 ?
DT40 TDP1 no CPT: inconclusive; DT40 TDP1 CPT: -12%; uPA surface inh: -1%; miR-21 reporter: 2%; TDP1 block: -3%

What do the screens show for `Cc1ncc(CO)c(/C=N/NC(=O)c2ccoc2C)c1O`?
DT40 TDP1 no CPT: inconclusive; DT40 TDP1 CPT: inconclusive; uPA surface inh: -3%; TDP1 block: -7%

What do the screens show for `Cc1ncc(CO)c(/C=N/NC(=S)Nc2cccc(Cl)c2)c1O`?
DT40 TDP1 no CPT: 16µM*; DT40 TDP1 CPT: inconclusive; uPA surface inh: -18%; miR-21 reporter: 20%; TDP1 block: 3%

What do the screens show for `Cc1ncc(CO)c(/C=N/NC(=S)Nc2ccc(Cl)c(Cl)c2)c1O`?
DT40 TDP1 no CPT: 13µM*; DT40 TDP1 CPT: 16µM*; uPA surface inh: -17%; miR-21 reporter: 26%; TDP1 block: 2%

How did CC(Cc1ccc(Cl)cc1)N1CCC(n2nccc2NC(=O)C2CCCC2)CC1 (stereo not drawn) do in these assays?
DT40 TDP1 no CPT: inconclusive; DT40 TDP1 CPT: inconclusive; uPA surface inh: 0%; miR-21 reporter: 5%; TDP1 block: 7%
